# Ab-91 heavy chain CDR variants: yeast mating affinities

The target is the same throughout: PDVDLGDISGINAS, from the HR2 region of SARS-CoV-2 spike.

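The starting antibody came from a phage panning campaign against this peptide. Library AAYL51 holds single substitutions and randomly drawn double and triple substitutions in the CDRs. In AlphaSeq, yeast of one mating type display the scFv and yeast of the other type display the target. Mating (16 h, 30 °C) was followed by selection of diploids and sequencing of their barcodes. Scores were corrected for input abundance and mapped to Kd with protein pairs of known affinity run in the same pool. Mating was done three times.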

Parent scFv Ab-91: VL joined to VH by a (GGGGS)3 linker. Changes lie in the heavy chain CDRs alone.
VL: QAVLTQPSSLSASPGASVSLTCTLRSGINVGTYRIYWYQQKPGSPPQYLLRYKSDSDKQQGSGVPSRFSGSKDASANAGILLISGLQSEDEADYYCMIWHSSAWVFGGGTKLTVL
VH: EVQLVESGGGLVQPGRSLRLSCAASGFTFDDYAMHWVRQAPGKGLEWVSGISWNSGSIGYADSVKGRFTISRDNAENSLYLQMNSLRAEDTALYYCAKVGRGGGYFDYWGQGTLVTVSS

The whole VH of each variant is written out. The read-out is the apparent dissociation constant on a log10 scale (nM): the lower, the stronger. Replicates are averaged; those with no signal do not enter the mean. Where no diploid with the target was found in that replicate, the entry reads "nd": below detection, most likely a poor binder, though not proof of it. Three control strains display no target. For library AAYL51, 21% of the pairings with them gave a signal, with a median of 4.54 and one signal in twenty below 3.26, so weak values seen in few replicates may be background. Also given: how often the same scFv was detected with the empty control strains, with their mean in brackets. For reference, the parent read 1.86 as the reference entry and 0.88 as a member of this library.

{"VH": "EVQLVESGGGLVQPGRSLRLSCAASGFTFDDYAMHWVRQAPGKGLEWVSGISWNSGSIGYADSVKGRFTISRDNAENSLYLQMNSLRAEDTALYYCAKVGVGGQYFDSWGQGTLVTVSS", "log10 Kd, replicates": "4.09 nd nd", "mean log10 Kd (nM)": "4.09", "empty controls": "0 of 9"}
{"VH": "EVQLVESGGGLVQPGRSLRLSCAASGFTFDDYAMHWVRQAPGKGLEWVSGISWNSGEIGYADSVMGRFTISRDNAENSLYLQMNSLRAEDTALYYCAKVGEGGGYFDYWGQGTLVTVSS", "log10 Kd, replicates": "3.68 4.63 nd", "mean log10 Kd (nM)": "4.16", "empty controls": "1 of 9 (5.27)"}
{"VH": "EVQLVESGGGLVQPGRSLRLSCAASMFTGDDYAMHWVRQAPGKGLEWVSGISWNPGSIGYADSVKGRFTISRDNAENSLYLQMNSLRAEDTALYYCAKVGRGGGYFDYWGQGTLVTVSS", "log10 Kd, replicates": "4.88 nd nd", "mean log10 Kd (nM)": "4.88", "empty controls": "2 of 9 (4.57)"}
{"VH": "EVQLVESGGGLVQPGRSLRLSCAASGFTFIDYAMHWVRQAPGKGLEWVSGISWNSGSIGYADSVKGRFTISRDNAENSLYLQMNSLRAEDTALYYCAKEGRGGGIFDYWGQGTLVTVSS", "log10 Kd, replicates": "6.01 4.02 nd", "mean log10 Kd (nM)": "5.01", "empty controls": "4 of 9 (4.62)"}
{"VH": "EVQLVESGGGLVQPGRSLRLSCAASGFTFDDYAMHWVRQAPGKGLEWVSGISWNSGSIGYADSVKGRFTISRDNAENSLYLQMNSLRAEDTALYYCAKVGRQGWYTDYWGQGTLVTVSS", "log10 Kd, replicates": "3.50 nd nd", "mean log10 Kd (nM)": "3.50", "empty controls": "1 of 9 (4.00)"}
{"VH": "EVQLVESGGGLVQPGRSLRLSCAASGVTFDDYAMHWVRQAPGKGLEWVSGISWNSGSIYYADSVKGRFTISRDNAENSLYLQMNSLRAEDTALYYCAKVGRGGGYFDYWGQGTLVTVSS", "log10 Kd, replicates": "nd nd nd", "mean log10 Kd (nM)": "nd", "empty controls": "2 of 9 (3.78)"}
{"VH": "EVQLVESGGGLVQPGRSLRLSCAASGFTVDDYAMHWVRQAPGKGLEWVSGISWNSGSIGYADSVKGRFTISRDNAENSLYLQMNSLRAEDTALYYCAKIGRGGGYFSYWGQGTLVTVSS", "log10 Kd, replicates": "4.12 6.32 nd", "mean log10 Kd (nM)": "5.22", "empty controls": "7 of 9 (4.62)"}
{"VH": "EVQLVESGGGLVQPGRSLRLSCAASGFTFDDYAMHWVRQAPGKGLEWVSGISWWLGSIGYADSVKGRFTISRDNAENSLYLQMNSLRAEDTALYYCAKVGRGGGPFDYWGQGTLVTVSS", "log10 Kd, replicates": "4.49 5.42 4.65", "mean log10 Kd (nM)": "4.85", "empty controls": "4 of 9 (5.24)"}
{"VH": "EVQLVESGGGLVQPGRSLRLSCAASGETYDDYAMHWVRQAPGKGLEWVSGIPWNSGSIGYADSVKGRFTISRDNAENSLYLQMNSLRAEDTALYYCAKVGRGGGYFDYWGQGTLVTVSS", "log10 Kd, replicates": "4.09 5.30 4.86", "mean log10 Kd (nM)": "4.75", "empty controls": "1 of 9 (3.42)"}
{"VH": "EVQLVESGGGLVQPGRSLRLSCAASGFTFDDYAMHWVRQAPGKGLEWVSGISWNSGTIGSQDSVKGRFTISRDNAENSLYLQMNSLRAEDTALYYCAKVGRGGGYFDYWGQGTLVTVSS", "log10 Kd, replicates": "nd 5.28 nd", "mean log10 Kd (nM)": "5.28", "empty controls": "1 of 9 (3.54)"}
{"VH": "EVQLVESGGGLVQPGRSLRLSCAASGFMFDDYAMHWVRQAPGKGLEWVSGISWNSGSIGYADSVKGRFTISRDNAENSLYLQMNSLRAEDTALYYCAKVGRGCGYFDCWGQGTLVTVSS", "log10 Kd, replicates": "6.09 5.39 nd", "mean log10 Kd (nM)": "5.74", "empty controls": "7 of 9 (4.45)"}
{"VH": "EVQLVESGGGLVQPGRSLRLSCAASGFTFDDYAMHWVRQAPGKGLEWVSGISWNCLSITYADSVKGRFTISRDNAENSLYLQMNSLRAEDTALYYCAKVGRGGGYFDYWGQGTLVTVSS", "log10 Kd, replicates": "nd nd nd", "mean log10 Kd (nM)": "nd", "empty controls": "5 of 9 (4.60)"}
{"VH": "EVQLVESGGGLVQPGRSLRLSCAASGFTFDDYAMHWVRQAPGKGLEWVSGISWNSWSIGYADSVKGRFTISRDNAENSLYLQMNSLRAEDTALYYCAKVGRGCGYFIYWGQGTLVTVSS", "log10 Kd, replicates": "nd nd nd", "mean log10 Kd (nM)": "nd", "empty controls": "1 of 9 (4.10)"}
{"VH": "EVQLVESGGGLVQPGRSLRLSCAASGFWKDDYAMHWVRQAPGKGLEWVSGISWNSGSIGYADSVKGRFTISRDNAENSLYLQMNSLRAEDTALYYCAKKGRGGGYFDYWGQGTLVTVSS", "log10 Kd, replicates": "nd nd nd", "mean log10 Kd (nM)": "nd", "empty controls": "0 of 9"}
{"VH": "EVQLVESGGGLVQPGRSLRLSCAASGFTFDDYAMHWVRQAPGKGLEWVSGITWNSGSIGYADSVKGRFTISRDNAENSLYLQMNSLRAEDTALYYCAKVGCGGPYFDYWGQGTLVTVSS", "log10 Kd, replicates": "nd nd nd", "mean log10 Kd (nM)": "nd", "empty controls": "0 of 9"}
{"VH": "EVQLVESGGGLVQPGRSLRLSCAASGFTFDHYAMHWVRQAPGKGLEWVSGISWNSGSIGYADCVKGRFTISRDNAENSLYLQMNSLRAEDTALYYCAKPGRGGGYFDYWGQGTLVTVSS", "log10 Kd, replicates": "nd nd nd", "mean log10 Kd (nM)": "nd", "empty controls": "0 of 9"}
{"VH": "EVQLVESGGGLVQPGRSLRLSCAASGFTFDDYAMEWVRQAPGKGLEWVSGISWNSGSIGYAFSVKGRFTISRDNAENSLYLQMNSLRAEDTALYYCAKVGRGGGYFDIWGQGTLVTVSS", "log10 Kd, replicates": "nd nd nd", "mean log10 Kd (nM)": "nd", "empty controls": "0 of 9"}
{"VH": "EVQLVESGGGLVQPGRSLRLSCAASGFTFDGGYMHWVRQAPGKGLEWVSGISWNSGSIGYADSVKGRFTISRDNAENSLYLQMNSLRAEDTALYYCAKVGRGGGYFDYWGQGTLVTVSS", "log10 Kd, replicates": "nd nd nd", "mean log10 Kd (nM)": "nd", "empty controls": "5 of 9 (4.33)"}

Picked from the list: the 2 lowest averages where every replicate gave a value.

VH,"log10 Kd, replicates",mean log10 Kd (nM),empty controls
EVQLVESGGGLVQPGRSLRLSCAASGETYDDYAMHWVRQAPGKGLEWVSGIPWNSGSIGYADSVKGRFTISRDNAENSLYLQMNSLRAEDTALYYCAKVGRGGGYFDYWGQGTLVTVSS,4.09 5.30 4.86,4.75,1 of 9 (3.42)
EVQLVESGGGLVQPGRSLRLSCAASGFTFDDYAMHWVRQAPGKGLEWVSGISWWLGSIGYADSVKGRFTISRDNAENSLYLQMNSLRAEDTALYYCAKVGRGGGPFDYWGQGTLVTVSS,4.49 5.42 4.65,4.85,4 of 9 (5.24)

The measurements come from Engelhart et al. 2022 (doi:10.1038/s41597-022-01779-4) through the FLAb antibody collection.